The source made the active and inactive calls. The calls are words filed in the database; no cut-off is given here.

By UniProt entry, the sequences of proteins in these tests, tags left out.
UniProt P15823, whole entry: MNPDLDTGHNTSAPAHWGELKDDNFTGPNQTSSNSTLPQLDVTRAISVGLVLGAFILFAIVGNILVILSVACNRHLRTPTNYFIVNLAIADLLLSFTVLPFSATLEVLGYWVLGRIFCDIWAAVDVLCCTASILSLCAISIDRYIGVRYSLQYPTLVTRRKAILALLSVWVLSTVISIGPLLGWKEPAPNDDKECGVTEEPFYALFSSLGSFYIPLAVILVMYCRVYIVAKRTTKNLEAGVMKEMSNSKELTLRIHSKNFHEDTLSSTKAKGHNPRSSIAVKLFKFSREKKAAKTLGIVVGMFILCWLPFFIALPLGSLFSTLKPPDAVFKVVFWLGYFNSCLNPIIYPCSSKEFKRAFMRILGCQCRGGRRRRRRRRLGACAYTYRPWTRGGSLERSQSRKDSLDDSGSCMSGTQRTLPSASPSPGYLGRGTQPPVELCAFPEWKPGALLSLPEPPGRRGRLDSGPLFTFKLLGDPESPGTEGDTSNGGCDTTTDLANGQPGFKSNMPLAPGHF
UniProt P23944, whole entry: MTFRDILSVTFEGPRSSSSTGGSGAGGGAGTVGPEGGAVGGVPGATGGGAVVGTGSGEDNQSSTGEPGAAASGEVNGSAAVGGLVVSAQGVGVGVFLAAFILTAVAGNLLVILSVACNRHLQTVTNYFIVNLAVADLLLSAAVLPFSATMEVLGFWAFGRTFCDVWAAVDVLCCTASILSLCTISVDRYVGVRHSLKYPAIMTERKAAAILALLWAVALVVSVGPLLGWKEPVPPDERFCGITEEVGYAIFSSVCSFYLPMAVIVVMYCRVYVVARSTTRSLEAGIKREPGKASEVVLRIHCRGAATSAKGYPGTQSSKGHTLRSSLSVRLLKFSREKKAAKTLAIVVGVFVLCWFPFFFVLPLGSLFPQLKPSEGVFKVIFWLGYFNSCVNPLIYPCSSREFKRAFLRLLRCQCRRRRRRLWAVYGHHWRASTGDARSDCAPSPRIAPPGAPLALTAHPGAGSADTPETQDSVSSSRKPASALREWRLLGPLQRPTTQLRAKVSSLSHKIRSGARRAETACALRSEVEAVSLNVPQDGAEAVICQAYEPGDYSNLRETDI
UniProt P18841, whole entry: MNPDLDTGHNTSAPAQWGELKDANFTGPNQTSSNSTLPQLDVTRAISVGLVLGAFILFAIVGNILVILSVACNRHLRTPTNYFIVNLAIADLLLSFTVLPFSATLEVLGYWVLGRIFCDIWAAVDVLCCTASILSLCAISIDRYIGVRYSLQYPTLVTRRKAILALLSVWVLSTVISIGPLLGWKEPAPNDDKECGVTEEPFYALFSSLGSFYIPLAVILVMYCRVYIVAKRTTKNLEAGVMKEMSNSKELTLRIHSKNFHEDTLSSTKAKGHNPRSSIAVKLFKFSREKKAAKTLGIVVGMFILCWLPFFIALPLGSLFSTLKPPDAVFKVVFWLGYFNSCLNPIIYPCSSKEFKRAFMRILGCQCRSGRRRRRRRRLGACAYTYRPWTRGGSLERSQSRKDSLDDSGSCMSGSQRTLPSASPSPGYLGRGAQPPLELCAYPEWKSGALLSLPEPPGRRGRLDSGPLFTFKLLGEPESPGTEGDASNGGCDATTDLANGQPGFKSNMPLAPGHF

The target of experiment [1] is Alpha-1B adrenergic receptor (Rattus norvegicus) (UniProt P15823). The experiment in a line: Agonist activity at alpha1B adrenoreceptor in Rattus norvegicus (rat) spleen relative to phenylephrine.
The target is the same in experiment [2]. The experiment in a line: Agonist activity at alpha1B adrenoreceptor in Rattus norvegicus (rat) spleen.
The target of experiment [3] is Alpha-1D adrenergic receptor (Rattus norvegicus, UniProt P23944). The experiment in a line: Binding affinity to Rattus norvegicus (rat) alpha1D adrenoreceptor by radioligand displacement assay.
Experiment [4] has as its target Alpha-1B adrenergic receptor (Mesocricetus auratus, UniProt P18841). The experiment in a line: Binding affinity to Cricetinae (hamster) alpha1B adrenoreceptor by radioligand displacement assay. For orientation: Displacement assays read how much labelled ligand stays bound in the presence of the test substance.

Turning to `CS(=O)(=O)Nc1cccc2c1CCCC2c1c[nH]cn1` (centres undefined), the Efficacy in experiment [1] amounted to 11%.
Consider `CCS(=O)(=O)Nc1cccc2c1CCC2c1c[nH]cn1` (centres undefined), for which the pEC50 entry in experiment [2] is “inactive”.
As to `CC(=O)Nc1cccc2c1CCCC2c1c[nH]cn1` (centres undefined), the Ki in experiment [3] and in experiment [4] was more than 10 µM throughout.
